Measurements as given in the Human Domainome abundance scans (Beltran et al. 2025).

B1: Tyrosine-protein kinase ABL1, residues 64 to 120; numbered along this chain, P00519 (parent)
chain: NLFVALYDFVASGDNTLSITKGEKLRVLGYNHNGEWCEAQTKNGQGWVPSNYITPVN

Variants of: B1
Assay: abundance fitness (aPCA) (normalised: wild type 0, dead -1); higher = more abundant; growth selection in yeast, the domain comes from the species named
Details: Homo sapiens

| Variant | abundance fitness |
| --- | --- |
| N57D | -0.068 ± 0.12 |
| N57Y | -0.111 ± 0.16 |
| N57Q | 0.574 ± 0.19 |
| N57R | -0.168 ± 0.076 |
| N57I | -0.422 ± 0.22 |
| N57S | 0.021 ± 0.098 |
| N57P | 0.048 ± 0.12 |
| N57H | -0.347 ± 0.35 |
| N57K | 0.752 ± 0.4 |
| N57G | -0.357 ± 0.17 |
| N57L | 0.093 ± 0.16 |
| N57V | 0.047 ± 0.13 |

± gives the uncertainty stated by the source.
